Measured values taken from patent US20070071699A1, “Benzylidene-1,3-thiazolidine-2,4-dione compounds for promoting and/or inducing and/or stimulating the pigmentation of keratin materials and/or for limiting their depigmentation and/or whitening” (L'OREAL, priority 2005, published 2007).

Target: T1, type-1 15-PGDH (Homo sapiens, UniProt P15428)
T1 construct: made in house
T1 sequence (P15428 1-266): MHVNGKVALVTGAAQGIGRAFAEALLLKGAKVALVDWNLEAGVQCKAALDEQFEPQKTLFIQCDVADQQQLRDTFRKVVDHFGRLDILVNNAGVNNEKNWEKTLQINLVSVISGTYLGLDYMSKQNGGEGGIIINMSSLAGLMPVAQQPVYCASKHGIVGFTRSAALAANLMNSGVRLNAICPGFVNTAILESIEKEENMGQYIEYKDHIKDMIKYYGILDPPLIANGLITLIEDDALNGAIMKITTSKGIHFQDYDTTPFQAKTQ
Test: Test on type-1 15-PGDH (spectrophotometric, NADH formation at 340 nm, PGE2 substrate)
Assay type: biochemical
Settings: IC50dh (concentration reducing the enzymatic activity of 15-PGDH by 50%), 37° C., pH 7.4 Tris buffer, 1.5 mM β-NAD, 50 μM Prostaglandin E2
Method: For the purposes of the test, this suspension is thawed and stored in ice.
0.965 ml of this buffer (brought to 37° C. beforehand) is introduced into the cuvette of a spectrophotometer (Perkin-Elmer, Lambda 2) thermostatically maintained at 37° C., the measuring wavelength of which is set at 340 nm. 0.035 mL of enzymatic suspension at 37° C. is introduced into the cuvette concomitantly with the recording (corresponding to an increase in the optical density at 340 nm). The maximum reaction rate is recorded.

SMILES	IC50 [nM]
O=C1NC(=O)/C(=C/c2ccccc2Oc2ccccc2)S1 [Compound 1]	12000
O=C1NC(=O)/C(=C/c2ccccc2Oc2ccc(Cl)cc2)S1 [Compound 2]	5000
CC(C)(C)c1ccc(Oc2ccccc2/C=C2\SC(=O)NC2=O)cc1 [Compound 3]	80
CC(C)(C)c1ccc(Oc2ccccc2/C=C2\SC(=O)NC2=O)cc1 [Compound 4, (5Z)-5-[2-(4-tert-butylphenoxy)benzylidene]-1,3-thiazolidine-2,4-dione]	94
O=C1NC(=O)/C(=C/c2ccccc2Oc2ccc(F)c(F)c2)S1 [Compound 8]	1300
O=C1NC(=O)/C(=C\c2ccccc2Oc2cccc(C(F)(F)F)c2)S1 [Compound 9]	2400
O=C1NC(=O)/C(=C/c2ccccc2Oc2ccc(Cl)c(F)c2)S1 [Compound 12]	460
O=C1NC(=O)/C(=C\c2ccccc2Oc2ccc([C@]34C[C@H]5C[C@H](C[C@H](C5)C3)C4)cc2)S1 [Compound 17]	1400
CCC(C)(C)c1cc(C)c(Oc2ccccc2/C=C2\SC(=O)NC2=O)c(C)c1 [Compound 18]	8000
CC(C)(C)c1ccc(Oc2ccc(/C=C3\SC(=O)NC3=O)cc2)cc1 [Compound 20]	85
